From ChEMBL document CHEMBL1128359, “Dicarboxylic acid dipeptide neutral endopeptidase inhibitors” (J Med Chem, 1995)

Target: T1, Neprilysin (Rattus norvegicus, UniProt P07861)
T1 sequence (P07861 whole entry): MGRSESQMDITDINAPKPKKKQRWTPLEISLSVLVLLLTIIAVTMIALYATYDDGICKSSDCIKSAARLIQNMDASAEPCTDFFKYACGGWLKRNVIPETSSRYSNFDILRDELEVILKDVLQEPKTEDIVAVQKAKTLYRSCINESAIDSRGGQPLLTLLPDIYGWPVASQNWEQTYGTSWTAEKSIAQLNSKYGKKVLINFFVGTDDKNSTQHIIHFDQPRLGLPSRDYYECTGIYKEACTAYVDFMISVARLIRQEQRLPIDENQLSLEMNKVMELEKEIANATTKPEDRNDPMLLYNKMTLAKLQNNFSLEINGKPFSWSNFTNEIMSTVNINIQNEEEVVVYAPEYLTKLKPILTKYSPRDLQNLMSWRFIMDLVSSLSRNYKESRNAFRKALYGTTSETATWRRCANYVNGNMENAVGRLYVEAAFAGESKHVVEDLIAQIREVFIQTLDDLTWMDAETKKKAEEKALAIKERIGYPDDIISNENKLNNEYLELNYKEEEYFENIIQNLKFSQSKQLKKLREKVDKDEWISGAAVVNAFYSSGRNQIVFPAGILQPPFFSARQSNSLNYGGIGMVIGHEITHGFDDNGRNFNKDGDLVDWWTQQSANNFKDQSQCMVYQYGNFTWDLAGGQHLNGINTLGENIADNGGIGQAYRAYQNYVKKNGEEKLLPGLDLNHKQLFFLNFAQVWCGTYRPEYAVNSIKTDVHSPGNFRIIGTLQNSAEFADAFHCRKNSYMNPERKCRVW
Experiment: In vitro inhibition of rat neutral endopeptidase by using GAAP as substrate
Procedure, shortened: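 Enzyme source was rat kidney cortex membranes (male Sprague-Dawley), 4.0 μg protein, plus 2.5 μg aminopeptidase M, in 50 mM Tris-HCl pH 7.4. Preincubated with inhibitor 10 min at 25 °C, then GAAP added (final 500 μM) for 25 min at 25 °C. Stopped with fast garnet, colour developed 30 min, OD read at 540 nm. Run in duplicate.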

O=C(O)CCC(=O)N[C@@H](CCC(=O)O)Cc1ccc(-c2ccccc2)cc1
IC50: 99 nM
